This is a selection; strong and weak results do not stand in their true shares. Calls of active or inactive are those of the source.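 How the source made its calls: active means GTP binding activity at least 20% away from the 100% baseline, either lowered as inhibitor or raised as activator; inconclusive means flagged as likely green fluorescent, judged across all proteins in the well; inactive means the rest.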
target: GTPase HRas (Homo sapiens) (UniProt P01112); assay: modulators of GTP binding to HRas wildtype, primary screen, biochemical, bead-based flow cytometry, multiplex (AID 759); details: GST-Ras wt beads, Bodipy-FL-GTP binding, at 10 µM, actives lie on both sides;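 further: 0% = unlabeled GTP competition control and 100% = no-compound control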

Amino acid sequences for entries named in this document (tags omitted).
UniProt P01112, whole entry: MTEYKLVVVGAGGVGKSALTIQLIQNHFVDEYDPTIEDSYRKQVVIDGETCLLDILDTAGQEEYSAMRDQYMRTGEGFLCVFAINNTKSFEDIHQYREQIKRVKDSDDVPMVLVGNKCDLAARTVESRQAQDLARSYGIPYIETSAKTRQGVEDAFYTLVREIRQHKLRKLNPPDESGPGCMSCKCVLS

Structure (SMILES)	GTP binding activity
COc1ccc(C(=O)NCC2(N3CCOCC3)CCCCC2)cc1OC	inactive: 98%
O=C(OC1CN2CCC1CC2)C1c2ccccc2C=Cc2ccccc21 (centres undefined)	inactive: 102%
N/C(=N\O)c1c(N)no[n+]1[O-]	inactive: 102%
N#Cc1ccc(C(=O)NCC2(N3CCCCC3)CCCCC2)cc1	inactive: 100%
c1ccc(CN2CCC(Nc3ccccc3)CC2)cc1	inactive: 99%
Fc1ccccc1NC1CCN(Cc2ccccc2)CC1	inactive: 104%
CN(C)c1ccc(C(=O)NCC2(N3CCCCC3)CCCCC2)cc1	inactive: 101%
CCN1CCC(Nc2cccc(F)c2)CC1	inactive: 100%
CC(C)(C)OC(=O)N1CCC(Nc2ccccc2)CC1	inactive: 100%
CCOc1ncccc1C(=O)NCC1(N2CCOCC2)CCCCC1	inactive: 100%
COc1cc(OC)cc(C(=O)NCC2(N3CCOCC3)CCCCC2)c1	inactive: 92%
COc1ccc(C(=O)NCC2(N3CCCCC3)CCCCC2)c(OC)c1OC	inactive: 98%
CCOC(=O)N1CCC(Nc2ccc(OC)cc2)CC1	inactive: 100%
O=C(OC1CN2CCC1CC2)C1c2ccccc2Oc2ccccc21 (centres undefined)	inactive: 101%
O=C(NCC1(N2CCOCC2)CCCCC1)c1cc2ccccc2o1	inactive: 101%
COc1ccc(NC2CCN(CCc3ccccc3)CC2)c(OC)c1	inactive: 99%
O=C(NCC1(N2CCCCC2)CCCCC1)c1cccc([N+](=O)[O-])c1	inactive: 97%
N#CC1(Nc2ccccc2)CCN(CCc2ccccc2)CC1	inactive: 108%
CN1CCN(CCOC(=O)C(O)(c2ccccc2)c2ccccc2)CC1	inactive: 102%
COc1ccc(NC2CCN(C(=O)OC(C)(C)C)CC2)cc1	inactive: 100%
O=C(NCC1(N2CCOCC2)CCCCC1)c1cc(=O)[nH]c2ccccc12	inactive: 99%
COc1ccc(CN(CCCl)CCCl)cc1Cl	inactive: 95%
CN(C)c1cccc(C(=O)NCC2(N3CCCCC3)CCCCC2)c1	inactive: 99%
CC(C)c1ccc(NC2CCN(C(=O)OC(C)(C)C)CC2)cc1	inactive: 95%
